The text below walks through data of BindingDB's records for doi:10.1021/jm00089a022 (Warner-Lambert, 1992).

The target in the assay is T1, 3-hydroxy-3-methylglutaryl-coenzyme A reductase (Homo sapiens, UniProt P04035).
T1 sequence (P04035 whole entry): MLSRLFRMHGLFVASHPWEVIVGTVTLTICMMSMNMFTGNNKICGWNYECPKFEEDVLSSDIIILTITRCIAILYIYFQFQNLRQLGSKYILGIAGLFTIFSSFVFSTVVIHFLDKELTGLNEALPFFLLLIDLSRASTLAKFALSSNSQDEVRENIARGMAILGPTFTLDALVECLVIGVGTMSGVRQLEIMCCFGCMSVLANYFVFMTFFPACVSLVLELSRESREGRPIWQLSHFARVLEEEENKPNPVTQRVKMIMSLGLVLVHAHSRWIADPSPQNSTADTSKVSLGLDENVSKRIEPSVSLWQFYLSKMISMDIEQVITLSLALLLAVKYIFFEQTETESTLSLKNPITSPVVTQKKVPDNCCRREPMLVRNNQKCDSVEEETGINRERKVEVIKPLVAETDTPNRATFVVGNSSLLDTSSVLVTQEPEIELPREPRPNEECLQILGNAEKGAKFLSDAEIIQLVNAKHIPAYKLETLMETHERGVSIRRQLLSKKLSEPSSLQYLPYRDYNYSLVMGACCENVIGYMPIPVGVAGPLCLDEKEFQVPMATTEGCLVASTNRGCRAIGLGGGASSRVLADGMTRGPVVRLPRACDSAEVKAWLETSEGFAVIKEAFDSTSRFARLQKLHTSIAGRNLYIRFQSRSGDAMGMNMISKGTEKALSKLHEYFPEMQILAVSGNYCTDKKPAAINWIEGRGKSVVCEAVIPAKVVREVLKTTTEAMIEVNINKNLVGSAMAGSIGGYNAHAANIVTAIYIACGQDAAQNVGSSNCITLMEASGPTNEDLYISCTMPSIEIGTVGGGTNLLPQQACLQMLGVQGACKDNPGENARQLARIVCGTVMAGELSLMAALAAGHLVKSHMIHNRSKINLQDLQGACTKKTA
The experiment in a line: ChEBML_80349. From the text:
Tested in vitro for the inhibition of HMG-CoA reductase from partially purified microsomal preparations.

pIC50: −log10 of the molar value.

By pIC50 is commonly meant the negative decadic logarithm of the IC50, by convention in mol/L. `CC[C@H](C)C(=O)O[C@H]1C[C@H](O)C=C2C=C[C@H](C)[C@H](CC[C@@H](O)C[C@@H](O)CC(=O)O)[C@H]21` [(3R,5R)-7-[(1S,2S,6S,8S,8aR)-6-hydroxy-2-methyl-8-{[(2S)-2-methylbutanoyl]oxy}-1,2,6,7,8,8a-hexahydronaphthalen-1-yl]-3,5-dihydroxyheptanoic acid] had a pIC50 of 7.52.
